Test system: histamine
Test: Test Procedure 5: histamine-induced bronchoconstriction in anesthetized guinea pigs
Assay type: in vivo, guinea pig
Description: Guinea pigs weighing 350 to 400 g were anesthetized ip with 1.5 g/kg urethane and prepared for measurements of resistance to pulmonary inflation using a slightly modified Konzett-Rossler method (see Test Procedure 2). […] The experimental procedure was started after each guinea pig had attained its maximal, repeatable response to histamine. […] Artificial respiration was resumed 25 minutes later. Thirty minutes after the administration of one of the drugs, tne guinea pigs received two of three injections of histamine at 3-minute intervals. The average of these histamine responses (increases in resistance) was expressed as percent of the maximal histamine response obtained with the same guinea pig before the administration of the drug. In addition to sc administration, compound b was also studied following po administration. In these studies, the time interval between po medication and the secondary histamine challenges was increased to 45 minutes.

## CN(C)CCOC(c1ccccc1)c1ccccc1 [Diphenhydramine, diphenhydramine, reference compound]
Sc 0.10 mg/kg
  % Inhibition: 6%
  Histamine-Response in % of Premed. Histamine Response: 94 ± 10%
Sc 0.33 mg/kg
  % Inhibition: 49%
  Histamine-Response in % of Premed. Histamine Response: 51 ± 17%
Sc 1.00 mg/kg
  % Inhibition: 76%
  Histamine-Response in % of Premed. Histamine Response: 24 ± 6%
sc, doses up to 1.0 mg (base)/kg
  inhibition of histamine responses: dose-related inhibition

Source: patent publication US4174402A, “Method for the prophylaxis of SRS-A-induced symptoms” (priority 1978, dated 1979)
